Assay [1] has as its target T1, mouse PDGF-β receptor tyrosine kinase (Mus musculus, UniProt P05622).
T1 construct: amplify a fragment of DNA that codes for the intracellular tyrosine kinase domain; made in house; host or cells: SF9 insect cells (baculovirus)
Put plainly: PDGF receptor tyrosine kinase assay (32P incorporation into glutamate-tyrosine co-polymer). In kind it is biochemical.

By UniProt entry, the sequences of proteins in these tests, tags left out. Residues count along the entry.
UniProt P05622, 599-961 limits assumed: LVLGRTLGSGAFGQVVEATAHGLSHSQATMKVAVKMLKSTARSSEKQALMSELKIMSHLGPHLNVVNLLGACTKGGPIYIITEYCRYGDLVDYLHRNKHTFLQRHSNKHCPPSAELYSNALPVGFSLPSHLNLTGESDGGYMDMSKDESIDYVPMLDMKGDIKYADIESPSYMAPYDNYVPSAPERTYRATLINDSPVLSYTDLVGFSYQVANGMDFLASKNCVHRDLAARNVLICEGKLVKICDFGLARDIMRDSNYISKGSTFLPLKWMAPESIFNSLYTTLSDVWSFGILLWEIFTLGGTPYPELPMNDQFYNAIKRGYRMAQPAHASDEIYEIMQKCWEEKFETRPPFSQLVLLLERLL
UniProt P11362, 478-767 limits assumed: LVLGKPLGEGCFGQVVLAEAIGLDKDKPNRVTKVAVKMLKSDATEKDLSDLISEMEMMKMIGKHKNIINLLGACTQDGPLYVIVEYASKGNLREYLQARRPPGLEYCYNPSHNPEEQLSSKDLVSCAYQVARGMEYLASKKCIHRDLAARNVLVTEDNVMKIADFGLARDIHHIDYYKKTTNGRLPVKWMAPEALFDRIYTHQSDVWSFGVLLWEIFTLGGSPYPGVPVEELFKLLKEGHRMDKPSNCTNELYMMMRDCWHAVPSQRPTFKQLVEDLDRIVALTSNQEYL

The target in assay [2] is T2, human FGF-1 (flg) receptor tyrosine kinase (Homo sapiens, UniProt P11362).
T2 construct: amplify a fragment of DNA that codes for the intracellular tyrosine kinase domain; made in house; host or cells: SF9 insect cells (baculovirus)
The assay is described as follows: FGF receptor tyrosine kinase assay (32P incorporation into glutamate-tyrosine co-polymer). In kind it is biochemical.

One may read the IC50 as the concentration that gives 50% inhibition. Low readings indicate greater potency in that assay, high ones weaker potency in that assay. For `CCn1c(=O)c(-c2c(Cl)cccc2Cl)cc2cnc(Nc3ccncc3)nc21` [Example 93, (2,6-Dichlorophenyl)-8-ethyl-2-(pyridin-4-ylamino)-8H-pyrido[2,3-d]pyrimidin-7-one], half-maximal inhibition in assay [1] (IC50) was put at 76 nM.

As for `COc1cccc(Nc2ncc3cc(-c4c(Cl)cccc4Cl)c(=O)n(C)c3n2)c1` [Example 72, 6-(2,6-Dichlorophenyl)-2-(3-methoxyphenylamino)-8-methyl-8H-pyrido[2,3-d]pyrimidin-7-one], the IC50 in assay [2] was 365 nM; in assay [1] it was 259 nM.

As to `CN1CCN(CCCCNc2ncc3cc(-c4c(Cl)cccc4Cl)c(=O)n(C)c3n2)CC1` [Example 59, 6-(2,6-Dichlorophenyl)-8-methyl-2-[4-(4-methylpiperazin-1-yl)-butylamino]-8H-pyrido[2,3-d]-pyrimidin-7-one], it took 853 nM to reach half-maximal inhibition in assay [1] (IC50).

`Cn1c(=O)c(-c2c(Cl)cccc2Cl)cc2cnc(Nc3cccnc3)nc21` [Example 79, 6-(2,6-Dichlorophenyl)-8-methyl-2-(pyridin-3-ylamino)-8H-pyrido[2,3-d]pyrimidin-7-one] showed an IC50 in assay [1] of 102 nM.

The values above are taken from patent EP0823908B1, “PYRIDO[2,3-d]PYRIMIDINES FOR INHIBITING PROTEIN TYROSINE KINASE MEDIATED [sequence] PROLIFERATION” (Warner-Lambert Company LLC, priority 1995, dated 1996).
